Laboratory results published in patent publication US20220233512A1, “INHIBITING AN IMMUNE RESPONSE MEDIATED BY ONE OR MORE OF TLR2, RAGE, CCR5, CXCR4 AND CD4” (priority 2020, published 2022).

Amino acid sequences for entries named in this document (tags omitted).
UniProt P33535, whole entry: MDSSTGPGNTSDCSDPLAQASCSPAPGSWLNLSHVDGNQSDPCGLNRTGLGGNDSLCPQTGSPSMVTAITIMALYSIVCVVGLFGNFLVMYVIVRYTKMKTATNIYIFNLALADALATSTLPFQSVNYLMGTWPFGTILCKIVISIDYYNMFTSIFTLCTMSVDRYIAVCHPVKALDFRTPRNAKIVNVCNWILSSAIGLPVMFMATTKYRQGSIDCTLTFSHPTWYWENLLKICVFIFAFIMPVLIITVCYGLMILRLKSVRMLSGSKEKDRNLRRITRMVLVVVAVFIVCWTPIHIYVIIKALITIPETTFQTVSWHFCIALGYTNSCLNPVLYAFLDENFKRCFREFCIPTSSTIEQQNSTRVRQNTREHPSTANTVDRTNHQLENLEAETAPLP

Molecular target: T1, mu opiate receptor (MOR) (Rattus norvegicus, UniProt P33535)
T1 construct: from tissue; host or cells: striatum (membrane preparation)
Assay: MOR agonist activity using [35S]GTPgS binding assay in striatal membranes
Type: biochemical
Settings: Series C-2 table

MOR agonist activity ([35S]GTPgS binding to Gao) (0.1 μM compound as agonist): 290.6%
MOR agonist activity ([35S]GTPgS binding to Gao) (1 μM + BFNA): 66.6%
MOR agonist activity ([35S]GTPgS binding to Gao) (1 μM compound as agonist): 378.9%
Structure (SMILES): O=S(=O)(c1ccc(F)cc1)N1CCOC12CCN(CC1CC1)CC2 [F-C0134]
